Values quoted from earlier work, collected in US20260327317A1, “PROTEASE-CLEAVABLE MOIETIES AND METHODS OF USE THEREOF” (CytomX Therapeutics, Inc., priority 2022, published 2026).

System: H292 (human lung cancer cell line) xenograft tumors
Settings: stated as background without reference; cited from earlier work

cetuximab: anti-EGFR antibody cetuximab, which lacks a prodomain
responsiveness of H292 cell line, in words: responsive to the anti-EGFR antibody cetuximab
